These results are taken from PubChem BioAssay AID2380 (Sanford-Burnham Center for Chemical Genomics, 2010).

This is a selection; strong and weak results do not stand in their true shares. Some of these compounds have results that are not shown, active ones among them. Active and inactive are the calls of the source.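 The calls were made as follows: active = compounds whose signal lies at least 3.5 SD above the mean of all wells on their plate; inactive = the rest.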

A short description of the test: small molecules increasing insulinoma cell replication – ATP luminescence, uHTS, primary screen (AID 2380).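 Also: 0% = DMSO-treated cells in low-serum medium and 100% = 10% serum control.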 The settings on record: MIN6 cells proliferation, ATPlite luminescence, 48 h; at 10 µM; hits give high values; 100% = growth in 10% serum; cells starved in 0.2% serum. (ATP-based viability assays read luminescence as a measure of living cells.)
In the case of `Cc1ccccc1C(=O)NCC1(N2CCCCC2)CCCCC1`, the proliferation is inactive: -0.35%.

Turning to `CN(C)c1ccc(C(=O)NCC2(N(C)C)CCCCC2)cc1`, the proliferation is inactive: -4.91%. `CN(C)C1CCCC1OC(=O)C(O)(c1ccccc1)c1ccccc1` (centres undefined): the proliferation is inactive: 0.18%. The value for `CCN1CCCC(OC(=O)C2(O)c3ccccc3C=Cc3ccccc32)C1` (centres undefined) was inactive: 0%; that for `Cc1cc(C(=O)NCC2(N3CCCCC3)CCCCC2)ccc1[N+](=O)[O-]` was inactive: 0%; that for `O=C(NCC1(N2CCCCC2)CCCCC1)c1cccc(Br)c1` was inactive: -0.64%. The value for `COc1ccc(C(=O)NCC2(N(C)C)CCCCC2)cc1` was inactive: -2.58%; that for `C=CCN1CCN(CCOC(=O)C(O)(c2ccccc2)c2ccccc2)CC1` was inactive: 0.92%. The value for `O=C(NCC1(N2CCCCC2)CCCCC1)c1cc(F)c(F)cc1Cl` was inactive: -1.92%; that for `CN1[C@@H]2CC[C@H]1CC(OC(=O)C(O)(c1ccccc1)c1ccccc1)C2` (some centres undefined) was inactive: -3.4%. Turning to `O=C(NCC1(N2CCCCC2)CCCCC1)c1cc([N+](=O)[O-])ccc1Cl`, the proliferation was inactive: -2.81%.

Consider `Cc1ccc(C(=O)NCC2(N3CCCCC3)CCCCC2)cc1`, for which the proliferation was inactive: 6.55%. As for `CC(C)N1C(=O)CC2(CCN(CCOC(=O)C(O)(c3ccccc3)c3ccccc3)CC2)C1=O`, the proliferation was inactive: -2.07%.

With `CCN(CC)CC(C)C(C)OC(=O)C(O)(c1ccccc1)c1ccccc1` (centres undefined), the proliferation was inactive: -1.5%. For `COc1cc(SC)ccc1C(=O)NCC1(N(C)C)CCCCC1` the value was inactive: 0.35%. With `O=C(OC1CN2CCC1CC2)C(CO)(c1ccccc1)c1ccccc1` (centres undefined), the proliferation is inactive: -5.31%. `CN(C)c1cccc(C(=O)NCC2(N(C)C)CCCCC2)c1`: the proliferation is inactive: -1.68%. Consider `CC(C)Oc1ccc(C(=O)NCC2(N(C)C)CCCCC2)cc1`, for which the proliferation was inactive: -3.19%. The value for `COc1ccc(Br)c(C(=O)NCC2(N3CCCCC3)CCCCC2)c1` was inactive: -3.08%; that for `COc1cc(C(=O)NCC2(N(C)C)CCCCC2)c([N+](=O)[O-])cc1OC` was inactive: -2.29%; that for `CN(C)C1(CNC(=O)c2ccc(Br)cc2)CCCCC1` was inactive: -3.41%. Turning to `O=C(NCC1(N2CCCCC2)CCCCC1)c1cccc(Cl)c1`, the proliferation is inactive: -4.2%.

Turning to `COc1cccc(C(=O)NCC2(N3CCCCC3)CCCCC2)c1`, the proliferation was inactive: -2.17%. The value for `COc1ccc(Cl)cc1C(=O)NCC1(N(C)C)CCCCC1` was inactive: 4.33%.
